Data as given in patent US20230406919A1 (Johns Hopkins, published 2023).

B1: Nb82 (VHH)
VHH: QVQLQESGGGLVQTGGSLRLSCKASGRAFARYDLAWSRQAPGKQREFVASIGVTRNPPYYSGSVKGRFTVSRDNAKETVYLQMNDLKPEDSAVYYCAAKDASVTVATIEDYPYWGRGTQVTVSS
notes: Llama VHH expressed from pHEN4 (C-terminal HA tag) in E. coli TG1 periplasm; also called Nb82 clone
B2: Nb82-His (VHH)
VHH: B1 VHH
notes: Subcloned into pHEN6-TEV-His; the HA-tag tail is probably replaced by TEV-His; also called purified Nb82; not shown: TEV site and 6x-His tag of the pHEN6-TEV-His vector
B3: Nb30 (VHH)
VHH: QVQLQESGGGLVQAGTSLVLSCAISGHTFSITGTAWFRQAPGKEREFVAGLTSSGDITHYASSVKGRFTISSDIAKNTVYLQMNNLKPEDTAVYYCTSVIRGRAGYDTWGQGTQVTVSS
notes: pHEN4 clone, HA-tagged, periplasmic extract; also called family 3
B4: Nb17 (VHH)
VHH: QVQLQESGGGLVQPGGSLRLSCRASGFTFANYDLAWTRQVPGKEREFVASIGVARGRTRTPATFYSASAKGRFTVSRDDARNTVYLQMNSLKPEDSAVYYCAAKDVEVSVATVEDYPYWGRGTQVTVSS
notes: Llama VHH expressed from pHEN4 (PelB leader, C-terminal HA tag) in E. coli TG1 periplasm; Used in the clone ELISA and the periplasmic-extract ELISA; also called Nb17 clone
B5: Nb17 fused to Cerulean (VHH)
VHH: B4 VHH
notes: Expressed in HEK293 cells for the flow-cytometric FRET 2-hybrid assay; also called Nb17-cerulean (FRET donor); not shown: cerulean fluorescent protein attached to the carboxy-terminus
B6: Nb17-His (VHH)
VHH: B4 VHH
notes: Coding region re-amplified with primers A6E/p38 and cloned PstI/BstEII into pHEN6-TEV-His; also called purified Nb17; not shown: TEV site and 6x-His tag of the pHEN6-TEV-His vector

How the values were obtained:
[1] = target: T1, Calmodulin (CaM) (mammalian); experiment: periplasmic-extract ELISA on 0.1 ug coated Ca2+CaM or apoCaM, anti-HA detection
T1 construct: also called free CaM; CaM alone

[2] = target: T2, CTNav1.4T-CaM (mammalian); experiment: BLI (Octet RED96), Nb-His on Ni-NTA biosensor, CTNav-CaM as analyte, 25 C
T2 construct: also called truncated C-terminal region of Nav1.4 in complex with calmodulin; CTNav1.4-CaM

[3] = target: T3, CTNav1.5T-CaM (mammalian); experiment: as above
T3 construct: also called CTNav1.5-CaM

[4] = target: T4, CTNav1.4FL-CaM (mammalian); experiment: differential scanning fluorimetry (SYPRO Orange) of the CTNav-CaM+Nb complex
T4 construct: also called full length C-terminal region of Nav1.4 in complex with calmodulin

[5] = target: T2, CTNav1.4T-CaM; experiment: as above
[6] = target: GST (UniProt P08515 = GST); experiment: ELISA, purified Nb-His on coated protein
[7] = target: T5, Nav1.8 CTD (UniProt Q9Y5Y9, in part); experiment: flow-cytometric FRET 2-hybrid in live cells, Nb17 with the Nav1.8 CTD
T5 construct: domain: CTD; construct not described; also called C terminal of Nav1.8

Row | Binder | binding result [1] | Kd [2] | koff [2] | Kd [3] | koff [3] | binding result [6] | also measured
1 | B1 | no binding (tested: 1:100 dilution of periplasmic extract) |  |  |  |  |  | 
2 | B2 |  | 50.2 nM | 0.000451 s⁻¹ | 63.2 nM | 0.00113 s⁻¹ | no binding | shift in melting temperature (thermal shift) [4]: 12 ° C.; shift in melting temperature (thermal shift) [5]: 13 ° C.
3 | B3 | no binding (tested: 1:100 dilution of periplasmic extract) |  |  |  |  |  | 
4 | B4 | no binding (tested: 1:100 dilution of periplasmic extract) |  |  |  |  |  | 
5 | B5 |  |  |  |  |  |  | binding result [7]: no binding (tested: 1E+5 a.u. (Dfree))
6 | B6 |  | 41.1 nM | 0.000739 s⁻¹ | 60.5 nM | 0.00107 s⁻¹ | no binding | shift in melting temperature (ΔTM) [4]: 17 ° C.; shift in melting temperature (ΔTM) [5]: 17 ° C.
